Reference: patent publication US20040210047A1, “Methallyl sucroses and their epoxy derivatives” (priority 2003, published 2004)

Tests used:
[1] = test system: Salmonella Typhimurium TA-100; assay: Modified Maron-Ames test, strain TA-100
Protocol: […] The assays were performed according to the modified methods of Maron and Ames (Maron D. R. and Ames, B. N. Mutation Research, 1980, Vol. 113, 173-215) using two strains of Salmonella Typhimurium TA-98 and TA-100, with and without metabolic activation of the substrate. The male rat microsomal homogenate S-9 was used to effect metabolic activation of the substrate. TA-98 and TA-100 were cultured in Oxoid Nutrient Broth No.2 at 37° C. for 16 hours using a gyratory shaker (200-250 rpm).
(§1) Compounds were assayed after the bacteria tested positive for the viability-related criteria above. Two mL top agar was placed in sterile culture tubes and kept at ˜40° C. in a water bath. Samples (100 μL) were placed in each tube (3 tubes per sample) and 100 μL of either strain TA-98 or TA-100 was added. When required, the S-9 homogenate (500 μL) was then added. The tubes were mixed and poured into minimal glucose agar plates. The plates were left at room temperature until the top agar solidified. Then, they were inverted and incubated at 37° C. for 48 hours. After incubation, revertant colonies were counted. Samples that presented greater than 2 times the number of revertant colonies were considered mutagenic. (See FIGS. 9(a) through (f)).

[2] = test system: Salmonella Typhimurium TA-98; assay: Modified Maron-Ames test, strain TA-98; settings: for mutagenicity (revertant colonies): strain TA-98, with or without metabolic activation S-9; for cytotoxicity and mutagenicity, overall conclusion: tester strain TA-98, all concentrations
Protocol: Serial dilutions (100 fold) were made with DMSO to obtain samples with dilution factors of 10^−3, 10^−5, and 10^−7. The assays were performed according to the modified methods of Maron and Ames (Maron D. R. and Ames, B. N. Mutation Research, 1980, Vol. 113, 173-215) using two strains of Salmonella Typhimurium TA-98 and TA-100, with and without metabolic activation of the substrate. The male rat microsomal homogenate S-9 was used to effect metabolic activation of the substrate. TA-98 and TA-100 were cultured in Oxoid Nutrient Broth No.2 at 37° C. for 16 hours using a gyratory shaker (200-250 rpm).
as §1

Row | Substance | mutagenic potential [1] | mutagenicity (revertant colonies) [2] | cytotoxicity and mutagenicity, overall conclusion [2]
1 | epoxyallyl sucrose [EAS] | no mutagenic potential | no apparent mutagenicity | neither cytotoxic nor mutagenic
2 | epoxycrotyl sucrose [ECS] | no mutagenic potential | no apparent mutagenicity | neither cytotoxic nor mutagenic
